{"source": "paper PMC10673258", "about": "“Taxifolin as a Metallo-β-Lactamase Inhibitor in Combination with Augmentin against Verona Imipenemase 2 Expressing Pseudomonas aeruginosa” (Microorganisms, 2023)", "test": "Toxicity against wild type human HEK 293T cells", "format": "cell-based", "details": "HEK293T cells (wild type); quercetin analogs alone; human kidney cell line HEK293T"}
{"smiles": "O=c1c(O)c(-c2ccc(O)c(O)c2)oc2cc(O)c(O)c(O)c12", "note": "[compound 4, quercetagetin]", "values": [{"measurement": "CC50", "result": "> 200", "unit": "µM"}]}
